Values joined by “and” are separate entries in the source; they are usually repeats but may differ in a detail not shown here. Equal entries are not always repeated.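 Method: 48-hour compound exposure of cells in 96-well plates, five concentrations, linear interpolation of endpoints. GI50 marks 50% less growth. TGI denotes the concentration required for complete inhibition of growth.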
How the values were obtained:
Experiment in all cases: NCI tumour cell line growth inhibition, 48 h
LOX IMVI melanoma = system: LOX IMVI melanoma
CCRF-CEM leukemia = system: CCRF-CEM leukemia
RXF 393 renal = system: RXF 393 renal
KM20L2 colon = system: KM20L2 colon
NCI-H460 lung = system: NCI-H460 lung
DMS 273 small cell lung = system: DMS 273 small cell lung
OVCAR-3 ovarian = system: OVCAR-3 ovarian
BT-549 breast = system: BT-549 breast
SNB-78 CNS = system: SNB-78 CNS
MCF7 breast = system: MCF7 breast
DMS 114 small cell lung = system: DMS 114 small cell lung
P388 leukemia = system: P388 leukemia
HS 578T breast = system: HS 578T breast
MALME-3M melanoma = system: MALME-3M melanoma
SN12K1 renal = system: SN12K1 renal
SK-MEL-5 melanoma = system: SK-MEL-5 melanoma
MDA-MB-435 = system: MDA-MB-435
SR leukemia = system: SR leukemia
DLD-1 colon = system: DLD-1 colon
NCI-H522 lung = system: NCI-H522 lung
NCI/ADR-RES ovarian = system: NCI/ADR-RES ovarian
SNB-75 CNS = system: SNB-75 CNS
MDA-N = system: MDA-N
LXFL 529 NSCLC = system: LXFL 529 NSCLC
UACC-62 melanoma = system: UACC-62 melanoma
M19-MEL melanoma = system: M19-MEL melanoma
SW-620 colon = system: SW-620 colon
KM12 colon = system: KM12 colon
P388/ADR leukemia = system: P388/ADR leukemia

## CC1=CC2OC3CC4OC(=O)/C=C/C=C/C(C(C)O)OCC(O)C(C)CC(=O)OCC2(CC1O)C4(C)C31CO1 (stereo not given)
LOX IMVI melanoma
  TGI: 0.00408 µM
CCRF-CEM leukemia
  GI50: 0.00182 µM
RXF 393 renal
  TGI: 0.0102 µM and 0.0246 µM
KM20L2 colon
  GI50: 0.00462 µM and 0.0194 µM
  TGI: 0.0174 µM and 0.0386 µM
NCI-H460 lung
  TGI: 0.00664 µM and 0.0138 µM and 0.0262 µM
DMS 273 small cell lung
  GI50: 0.0139 µM
  TGI: 0.0338 µM and 0.0179 µM
OVCAR-3 ovarian
  TGI: 0.00967 µM and 0.0221 µM and 0.022 µM
BT-549 breast
  TGI: 0.022 µM
SNB-78 CNS
  GI50: 0.00487 µM and 0.0202 µM
  TGI: 0.0125 µM and 0.0403 µM
MCF7 breast
  TGI: 0.756 µM
DMS 114 small cell lung
  GI50: 0.00166 µM
  TGI: 0.0027 µM
P388 leukemia
  TGI: 0.175 µM
HS 578T breast
  TGI: 0.00323 µM
MALME-3M melanoma
  TGI: 0.0041 µM
SN12K1 renal
  TGI: 0.0209 µM
SK-MEL-5 melanoma
  TGI: 0.00419 µM
MDA-MB-435
  GI50: 0.00266 µM
  TGI: 0.0105 µM and 0.0164 µM
SR leukemia
  GI50: 0.00248 µM
DLD-1 colon
  GI50: 0.00411 µM and 0.0184 µM
  TGI: 0.0138 µM and 0.0529 µM
NCI-H522 lung
  TGI: 0.00228 µM
NCI/ADR-RES ovarian
  GI50: 1.39 µM and 0.518 µM
  TGI: 4.87 µM and 3.8 µM
SNB-75 CNS
  TGI: 0.0158 µM and 0.0162 µM and 0.0213 µM
MDA-N
  GI50: 0.00217 µM
  TGI: 0.00549 µM and 0.0179 µM
LXFL 529 NSCLC
  GI50: 0.00174 µM
  TGI: 0.00338 µM
UACC-62 melanoma
  TGI: 0.00783 µM and 0.0244 µM
M19-MEL melanoma
  GI50: 0.00321 µM
  TGI: 0.0047 µM and 0.02 µM
SW-620 colon
  TGI: 0.17 µM and 0.0568 µM and 0.248 µM
KM12 colon
  TGI: 0.0156 µM and 0.0658 µM and 0.043 µM
P388/ADR leukemia
  GI50: 0.0591 µM
  TGI: 0.295 µM
